The nature of data set [1]: Toxicity in BALB/c mouse assessed as body weight loss at 40 mg/kg, po administered twice daily measured up to 25 days. It counts as organism-based. As to conditions: in vivo, 600 h, time < 25 day.
For data set [2], the target named is T1, Progesterone receptor (Homo sapiens) (UniProt P06401).
T1 sequence (whole entry): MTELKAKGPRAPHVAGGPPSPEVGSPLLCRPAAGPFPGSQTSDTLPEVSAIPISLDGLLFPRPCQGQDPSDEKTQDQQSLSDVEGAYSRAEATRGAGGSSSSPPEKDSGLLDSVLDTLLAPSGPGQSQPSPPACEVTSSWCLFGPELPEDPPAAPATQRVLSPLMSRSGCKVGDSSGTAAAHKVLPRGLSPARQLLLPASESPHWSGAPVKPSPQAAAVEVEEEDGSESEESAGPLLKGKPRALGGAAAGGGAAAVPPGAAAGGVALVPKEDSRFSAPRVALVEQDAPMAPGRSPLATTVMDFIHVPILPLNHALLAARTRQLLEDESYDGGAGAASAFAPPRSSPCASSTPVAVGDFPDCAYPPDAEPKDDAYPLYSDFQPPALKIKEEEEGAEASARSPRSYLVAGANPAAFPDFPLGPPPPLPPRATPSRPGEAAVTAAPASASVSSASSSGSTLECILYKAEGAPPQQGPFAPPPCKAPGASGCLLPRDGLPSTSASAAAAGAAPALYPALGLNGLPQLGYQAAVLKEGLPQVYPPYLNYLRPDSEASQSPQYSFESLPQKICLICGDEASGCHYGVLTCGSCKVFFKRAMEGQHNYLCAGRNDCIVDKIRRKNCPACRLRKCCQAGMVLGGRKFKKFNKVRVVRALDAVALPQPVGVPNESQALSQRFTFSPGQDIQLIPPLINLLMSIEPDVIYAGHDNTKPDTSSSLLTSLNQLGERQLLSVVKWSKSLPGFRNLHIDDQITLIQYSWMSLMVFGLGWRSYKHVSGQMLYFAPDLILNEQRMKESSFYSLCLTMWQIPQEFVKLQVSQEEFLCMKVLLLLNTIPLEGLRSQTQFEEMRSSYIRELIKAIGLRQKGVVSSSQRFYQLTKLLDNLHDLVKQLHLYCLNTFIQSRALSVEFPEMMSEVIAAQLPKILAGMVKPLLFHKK
Put plainly: Antagonist activity at progesterone receptor (unknown origin).

Data set [3] deals with T2, Mineralocorticoid receptor (Homo sapiens) (UniProt P08235).
T2 sequence (whole entry): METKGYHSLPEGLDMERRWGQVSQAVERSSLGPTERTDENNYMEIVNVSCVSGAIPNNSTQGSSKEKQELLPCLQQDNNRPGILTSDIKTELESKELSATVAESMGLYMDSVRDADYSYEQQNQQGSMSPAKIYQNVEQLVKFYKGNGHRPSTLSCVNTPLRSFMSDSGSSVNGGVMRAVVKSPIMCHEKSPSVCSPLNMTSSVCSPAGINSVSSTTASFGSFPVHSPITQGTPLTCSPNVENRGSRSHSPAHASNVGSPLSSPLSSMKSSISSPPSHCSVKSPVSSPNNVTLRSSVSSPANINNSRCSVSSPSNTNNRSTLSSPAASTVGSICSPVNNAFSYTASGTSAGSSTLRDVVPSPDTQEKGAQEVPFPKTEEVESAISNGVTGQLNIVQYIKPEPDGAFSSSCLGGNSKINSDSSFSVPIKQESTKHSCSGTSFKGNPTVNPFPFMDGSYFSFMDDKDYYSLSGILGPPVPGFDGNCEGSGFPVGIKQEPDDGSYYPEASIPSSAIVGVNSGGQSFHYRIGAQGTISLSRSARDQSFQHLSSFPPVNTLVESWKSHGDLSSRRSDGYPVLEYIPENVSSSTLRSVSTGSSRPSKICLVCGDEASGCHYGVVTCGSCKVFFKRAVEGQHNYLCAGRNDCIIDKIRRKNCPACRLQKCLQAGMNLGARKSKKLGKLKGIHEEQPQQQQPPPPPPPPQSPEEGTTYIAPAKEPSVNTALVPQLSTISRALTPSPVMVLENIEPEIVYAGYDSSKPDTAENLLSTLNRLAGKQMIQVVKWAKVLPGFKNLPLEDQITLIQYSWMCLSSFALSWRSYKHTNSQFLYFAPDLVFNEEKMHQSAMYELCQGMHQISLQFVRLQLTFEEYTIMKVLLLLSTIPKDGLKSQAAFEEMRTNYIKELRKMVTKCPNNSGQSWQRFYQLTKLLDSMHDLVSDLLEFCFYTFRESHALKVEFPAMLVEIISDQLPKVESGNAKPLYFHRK
The data set is described as follows: Agonist activity at Mineralocorticoid receptor (unknown origin). As to conditions: filed as agonist.

For data set [4], the system named is NIH3T3. Put plainly: Antiproliferative activity against mouse 3T3 cells at 50 uM incubated for 3 days by MTT assay relative to control. It counts as toxicity, cell-based. As to conditions: nih3t3, 72 h, time 3 day.
Data set [5] deals with T1, Progesterone receptor (Homo sapiens). Put plainly: Agonist activity at progesterone receptor (unknown origin). As to conditions: filed as agonist.
The target in data set [6] is T2, Mineralocorticoid receptor (Homo sapiens). The data set is described as follows: Antagonist activity at Mineralocorticoid receptor (unknown origin).

The source made the active and inactive calls. The calls are words filed in the database; no cut-off is given here.

Consider `O=C(Nc1nc(CN2CCOCC2)ns1)C1=Cc2cc(Cl)ccc2OC=C1`, for which the Activity result in data set [1] is on record as “Non-toxic”.

Regarding `CC(=O)Cc1nsc(NC(=O)C2=COc3ccc(Cl)cc3C=C2)n1`, the result in data set [2] and in data set [6] was inactive. Moreover, the Activity entry is “Minimal_effect” in data set [3], below 40% in data set [4] and “Minimal_effect” in data set [5].
